The source of these data is ChEMBL document CHEMBL1151064, “Conformationally restricted 1,5-diarylpyrazoles are selective COX-2 inhibitors” (Bioorg Med Chem Lett, 1996).

Sequences of proteins named here, by UniProt entry; tags and fusion partners are left off.
UniProt P23219, whole entry: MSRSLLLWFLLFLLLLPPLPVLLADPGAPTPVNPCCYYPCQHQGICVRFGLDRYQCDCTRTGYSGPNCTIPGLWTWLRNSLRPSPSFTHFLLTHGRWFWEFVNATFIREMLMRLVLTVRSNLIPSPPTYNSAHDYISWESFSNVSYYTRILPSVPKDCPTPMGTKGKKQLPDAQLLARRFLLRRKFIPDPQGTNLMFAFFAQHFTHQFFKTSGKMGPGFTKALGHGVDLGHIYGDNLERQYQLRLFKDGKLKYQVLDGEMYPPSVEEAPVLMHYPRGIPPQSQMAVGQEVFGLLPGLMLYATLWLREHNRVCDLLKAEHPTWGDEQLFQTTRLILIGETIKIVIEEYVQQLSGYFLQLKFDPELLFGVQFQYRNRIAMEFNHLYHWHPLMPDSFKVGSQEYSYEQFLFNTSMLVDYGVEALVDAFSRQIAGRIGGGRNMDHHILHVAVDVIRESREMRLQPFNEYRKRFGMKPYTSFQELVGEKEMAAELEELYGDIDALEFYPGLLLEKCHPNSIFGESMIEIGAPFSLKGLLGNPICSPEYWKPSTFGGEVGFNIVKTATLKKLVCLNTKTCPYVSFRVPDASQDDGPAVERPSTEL

SMILES strings stand for the structures.

In the assay the target is Prostaglandin G/H synthase 1 (Homo sapiens, UniProt P23219). The experiment in a line: Relative activity against COX-1/COX-2.

In the case of `NS(=O)(=O)c1ccc(-n2nc(C(F)(F)F)c3c2-c2ccccc2CC3)cc1`, the Ratio came out at 12.4.
